From PubChem BioAssay (EPA / NIEHS)
The list shows a part of the results, in another mix than the full data. Results filed as inconclusive are left out. Calls of active or inactive are those of the source. How the source made its calls: active means hit-call score of the fitted dose curve at least 0.9, where 1 is the maximum; inconclusive means response in the unintended direction; inactive means score below 0.9.

The chains behind the UniProt entries cited, without tags or fusion partners. Where a name states a change or a piece, a line headed by the entry shows the natural chain unless it says otherwise.
UniProt P29323: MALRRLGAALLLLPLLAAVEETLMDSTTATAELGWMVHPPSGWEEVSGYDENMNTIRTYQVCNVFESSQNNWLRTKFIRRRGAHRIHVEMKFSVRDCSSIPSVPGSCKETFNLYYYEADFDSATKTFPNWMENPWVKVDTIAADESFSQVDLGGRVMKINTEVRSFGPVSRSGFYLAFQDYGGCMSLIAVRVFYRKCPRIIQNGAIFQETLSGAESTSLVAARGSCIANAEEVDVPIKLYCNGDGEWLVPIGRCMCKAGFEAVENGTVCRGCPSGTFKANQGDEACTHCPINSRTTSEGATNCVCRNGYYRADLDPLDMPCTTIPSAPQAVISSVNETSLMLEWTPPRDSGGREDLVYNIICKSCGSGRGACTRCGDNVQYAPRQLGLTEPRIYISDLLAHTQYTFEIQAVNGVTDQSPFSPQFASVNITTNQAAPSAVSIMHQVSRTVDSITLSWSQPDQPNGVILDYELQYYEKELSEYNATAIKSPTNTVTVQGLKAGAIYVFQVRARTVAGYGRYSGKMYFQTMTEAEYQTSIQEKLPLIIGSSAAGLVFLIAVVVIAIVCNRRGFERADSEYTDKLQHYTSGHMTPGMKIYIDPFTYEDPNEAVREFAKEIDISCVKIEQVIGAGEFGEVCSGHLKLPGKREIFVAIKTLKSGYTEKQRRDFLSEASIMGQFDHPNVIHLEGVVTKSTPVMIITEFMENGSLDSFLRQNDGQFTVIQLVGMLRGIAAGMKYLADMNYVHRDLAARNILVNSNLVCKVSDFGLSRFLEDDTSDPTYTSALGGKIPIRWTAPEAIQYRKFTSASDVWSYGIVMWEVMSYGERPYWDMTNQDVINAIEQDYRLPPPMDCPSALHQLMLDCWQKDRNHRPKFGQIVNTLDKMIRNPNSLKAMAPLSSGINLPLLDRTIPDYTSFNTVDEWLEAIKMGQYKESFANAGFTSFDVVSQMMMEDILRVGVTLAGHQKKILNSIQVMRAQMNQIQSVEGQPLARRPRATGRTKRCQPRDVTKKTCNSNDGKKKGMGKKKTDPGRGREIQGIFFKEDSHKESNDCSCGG
UniProt P21709: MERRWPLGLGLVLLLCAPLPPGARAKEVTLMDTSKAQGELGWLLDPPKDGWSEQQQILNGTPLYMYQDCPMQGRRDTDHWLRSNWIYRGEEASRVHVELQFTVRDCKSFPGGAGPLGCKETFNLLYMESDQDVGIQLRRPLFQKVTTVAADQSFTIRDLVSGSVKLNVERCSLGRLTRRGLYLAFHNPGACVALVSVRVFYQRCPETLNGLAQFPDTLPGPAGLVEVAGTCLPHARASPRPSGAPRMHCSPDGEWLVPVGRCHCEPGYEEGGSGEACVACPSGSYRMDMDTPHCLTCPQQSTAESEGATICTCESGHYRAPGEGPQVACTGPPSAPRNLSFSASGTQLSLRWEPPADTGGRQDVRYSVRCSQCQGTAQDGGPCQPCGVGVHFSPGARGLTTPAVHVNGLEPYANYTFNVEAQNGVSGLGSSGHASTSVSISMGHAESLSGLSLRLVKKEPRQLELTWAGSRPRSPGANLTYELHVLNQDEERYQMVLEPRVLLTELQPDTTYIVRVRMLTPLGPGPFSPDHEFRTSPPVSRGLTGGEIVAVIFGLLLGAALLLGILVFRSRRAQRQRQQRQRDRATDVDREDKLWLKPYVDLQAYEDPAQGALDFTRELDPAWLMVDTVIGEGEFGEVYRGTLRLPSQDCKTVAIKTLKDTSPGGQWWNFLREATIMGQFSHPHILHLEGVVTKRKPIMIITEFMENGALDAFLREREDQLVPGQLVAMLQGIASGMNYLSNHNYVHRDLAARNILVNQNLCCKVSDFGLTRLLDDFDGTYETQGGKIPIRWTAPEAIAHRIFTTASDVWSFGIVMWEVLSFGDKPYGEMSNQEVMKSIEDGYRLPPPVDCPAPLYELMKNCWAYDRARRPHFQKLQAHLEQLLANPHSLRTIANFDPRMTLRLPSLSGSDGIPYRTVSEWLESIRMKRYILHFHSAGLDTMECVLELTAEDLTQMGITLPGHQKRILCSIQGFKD
UniProt P11362, whole entry, looked up: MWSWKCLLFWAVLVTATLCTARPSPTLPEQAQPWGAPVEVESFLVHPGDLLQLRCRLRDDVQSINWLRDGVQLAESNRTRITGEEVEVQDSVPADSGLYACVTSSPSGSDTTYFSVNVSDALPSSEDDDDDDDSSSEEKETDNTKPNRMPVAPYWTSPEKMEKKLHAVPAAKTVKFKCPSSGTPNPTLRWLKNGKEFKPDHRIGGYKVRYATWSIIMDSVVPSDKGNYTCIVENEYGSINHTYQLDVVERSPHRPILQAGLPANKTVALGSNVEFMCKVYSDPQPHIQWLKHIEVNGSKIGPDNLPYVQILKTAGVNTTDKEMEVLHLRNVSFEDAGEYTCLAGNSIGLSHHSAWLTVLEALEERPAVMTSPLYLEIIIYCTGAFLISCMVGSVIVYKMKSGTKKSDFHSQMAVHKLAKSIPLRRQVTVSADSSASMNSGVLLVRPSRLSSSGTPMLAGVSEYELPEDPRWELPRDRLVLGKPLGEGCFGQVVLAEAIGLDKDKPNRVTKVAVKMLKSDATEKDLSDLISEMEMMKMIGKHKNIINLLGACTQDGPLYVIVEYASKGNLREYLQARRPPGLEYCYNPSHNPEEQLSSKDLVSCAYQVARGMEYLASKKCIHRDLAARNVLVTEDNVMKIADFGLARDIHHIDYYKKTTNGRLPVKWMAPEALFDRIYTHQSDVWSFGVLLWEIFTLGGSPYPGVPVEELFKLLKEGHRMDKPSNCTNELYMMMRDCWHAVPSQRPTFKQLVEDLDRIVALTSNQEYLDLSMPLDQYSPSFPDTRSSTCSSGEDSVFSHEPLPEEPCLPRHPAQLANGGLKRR
UniProt P49841: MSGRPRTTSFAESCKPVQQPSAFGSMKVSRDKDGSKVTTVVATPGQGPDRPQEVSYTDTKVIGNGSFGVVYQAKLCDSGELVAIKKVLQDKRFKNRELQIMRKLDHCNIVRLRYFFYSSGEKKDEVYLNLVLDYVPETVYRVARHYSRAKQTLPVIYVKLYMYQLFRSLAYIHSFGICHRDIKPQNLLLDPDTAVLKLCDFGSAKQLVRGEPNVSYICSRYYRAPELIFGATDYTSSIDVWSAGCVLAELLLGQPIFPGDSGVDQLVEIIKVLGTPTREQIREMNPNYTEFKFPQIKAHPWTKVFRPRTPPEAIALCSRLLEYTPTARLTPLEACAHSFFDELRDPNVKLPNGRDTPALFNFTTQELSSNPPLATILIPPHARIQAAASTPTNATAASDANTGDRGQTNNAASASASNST
UniProt O15111: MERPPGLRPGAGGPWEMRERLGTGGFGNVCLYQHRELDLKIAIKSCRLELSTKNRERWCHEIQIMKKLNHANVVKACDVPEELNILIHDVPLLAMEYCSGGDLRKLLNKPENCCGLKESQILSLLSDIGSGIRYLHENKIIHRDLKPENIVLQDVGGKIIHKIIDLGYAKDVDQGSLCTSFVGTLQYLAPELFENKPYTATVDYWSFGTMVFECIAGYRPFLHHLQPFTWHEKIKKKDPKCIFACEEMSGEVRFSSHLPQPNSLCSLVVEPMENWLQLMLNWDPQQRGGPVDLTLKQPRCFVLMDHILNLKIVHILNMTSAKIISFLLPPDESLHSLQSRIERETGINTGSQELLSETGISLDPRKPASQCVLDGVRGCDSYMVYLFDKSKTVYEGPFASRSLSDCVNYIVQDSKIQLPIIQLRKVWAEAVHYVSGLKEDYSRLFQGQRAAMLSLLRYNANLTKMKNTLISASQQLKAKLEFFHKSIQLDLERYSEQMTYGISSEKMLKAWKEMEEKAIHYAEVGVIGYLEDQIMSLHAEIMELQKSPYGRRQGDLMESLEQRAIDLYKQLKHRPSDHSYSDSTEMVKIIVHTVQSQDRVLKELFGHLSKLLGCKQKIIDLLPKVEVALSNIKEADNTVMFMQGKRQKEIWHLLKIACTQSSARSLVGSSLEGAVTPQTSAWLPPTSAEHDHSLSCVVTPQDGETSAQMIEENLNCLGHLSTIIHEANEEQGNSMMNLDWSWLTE
UniProt P09237: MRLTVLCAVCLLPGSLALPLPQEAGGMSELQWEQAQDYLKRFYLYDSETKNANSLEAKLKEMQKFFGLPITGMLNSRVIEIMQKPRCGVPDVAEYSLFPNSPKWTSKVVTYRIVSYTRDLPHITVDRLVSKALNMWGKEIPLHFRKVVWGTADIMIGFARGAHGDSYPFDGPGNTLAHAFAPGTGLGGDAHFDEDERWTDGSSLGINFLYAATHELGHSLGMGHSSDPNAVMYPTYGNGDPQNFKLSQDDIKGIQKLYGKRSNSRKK
UniProt P29317, whole entry, looked up: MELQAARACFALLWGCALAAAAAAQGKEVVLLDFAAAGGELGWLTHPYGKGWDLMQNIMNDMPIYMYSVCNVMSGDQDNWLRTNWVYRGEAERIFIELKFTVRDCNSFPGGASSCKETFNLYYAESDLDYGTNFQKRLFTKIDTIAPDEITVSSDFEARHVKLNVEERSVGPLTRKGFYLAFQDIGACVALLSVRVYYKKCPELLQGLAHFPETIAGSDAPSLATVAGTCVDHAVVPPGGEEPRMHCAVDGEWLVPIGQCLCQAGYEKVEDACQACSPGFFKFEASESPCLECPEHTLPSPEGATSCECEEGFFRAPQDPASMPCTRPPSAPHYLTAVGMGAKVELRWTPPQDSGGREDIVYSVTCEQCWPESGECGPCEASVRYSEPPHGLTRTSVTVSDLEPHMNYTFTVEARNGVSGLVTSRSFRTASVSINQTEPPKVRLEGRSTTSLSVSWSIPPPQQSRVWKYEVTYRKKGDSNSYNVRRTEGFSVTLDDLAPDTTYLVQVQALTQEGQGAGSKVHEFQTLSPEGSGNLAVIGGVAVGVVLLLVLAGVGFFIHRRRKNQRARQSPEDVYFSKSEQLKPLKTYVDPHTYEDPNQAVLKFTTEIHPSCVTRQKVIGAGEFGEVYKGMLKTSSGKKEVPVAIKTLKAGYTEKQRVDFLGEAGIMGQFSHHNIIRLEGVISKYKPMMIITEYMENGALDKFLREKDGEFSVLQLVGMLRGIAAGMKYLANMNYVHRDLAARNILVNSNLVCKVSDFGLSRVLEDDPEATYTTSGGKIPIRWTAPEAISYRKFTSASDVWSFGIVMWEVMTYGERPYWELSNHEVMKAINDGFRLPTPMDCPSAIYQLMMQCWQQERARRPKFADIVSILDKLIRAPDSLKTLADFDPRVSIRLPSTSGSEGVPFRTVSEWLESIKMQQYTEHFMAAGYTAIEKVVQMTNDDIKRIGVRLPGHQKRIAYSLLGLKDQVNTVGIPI
UniProt P28482, whole entry, looked up: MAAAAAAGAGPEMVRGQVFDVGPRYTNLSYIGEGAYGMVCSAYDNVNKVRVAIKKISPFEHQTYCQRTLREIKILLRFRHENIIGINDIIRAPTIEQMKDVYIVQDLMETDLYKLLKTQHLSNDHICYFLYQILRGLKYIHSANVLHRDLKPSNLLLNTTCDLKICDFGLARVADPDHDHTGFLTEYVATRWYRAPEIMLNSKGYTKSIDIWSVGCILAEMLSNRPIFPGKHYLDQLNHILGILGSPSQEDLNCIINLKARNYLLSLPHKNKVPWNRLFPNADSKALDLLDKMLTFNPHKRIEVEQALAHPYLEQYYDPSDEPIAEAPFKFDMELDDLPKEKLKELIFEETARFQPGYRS
UniProt P08246: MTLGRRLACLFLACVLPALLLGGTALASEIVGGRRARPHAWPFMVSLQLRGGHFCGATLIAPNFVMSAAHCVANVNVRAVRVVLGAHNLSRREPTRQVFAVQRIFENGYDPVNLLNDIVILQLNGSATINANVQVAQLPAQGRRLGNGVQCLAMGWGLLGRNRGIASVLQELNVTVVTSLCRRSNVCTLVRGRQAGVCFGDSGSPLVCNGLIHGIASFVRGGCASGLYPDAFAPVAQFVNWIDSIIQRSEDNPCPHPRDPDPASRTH
UniProt P06276, whole entry, looked up: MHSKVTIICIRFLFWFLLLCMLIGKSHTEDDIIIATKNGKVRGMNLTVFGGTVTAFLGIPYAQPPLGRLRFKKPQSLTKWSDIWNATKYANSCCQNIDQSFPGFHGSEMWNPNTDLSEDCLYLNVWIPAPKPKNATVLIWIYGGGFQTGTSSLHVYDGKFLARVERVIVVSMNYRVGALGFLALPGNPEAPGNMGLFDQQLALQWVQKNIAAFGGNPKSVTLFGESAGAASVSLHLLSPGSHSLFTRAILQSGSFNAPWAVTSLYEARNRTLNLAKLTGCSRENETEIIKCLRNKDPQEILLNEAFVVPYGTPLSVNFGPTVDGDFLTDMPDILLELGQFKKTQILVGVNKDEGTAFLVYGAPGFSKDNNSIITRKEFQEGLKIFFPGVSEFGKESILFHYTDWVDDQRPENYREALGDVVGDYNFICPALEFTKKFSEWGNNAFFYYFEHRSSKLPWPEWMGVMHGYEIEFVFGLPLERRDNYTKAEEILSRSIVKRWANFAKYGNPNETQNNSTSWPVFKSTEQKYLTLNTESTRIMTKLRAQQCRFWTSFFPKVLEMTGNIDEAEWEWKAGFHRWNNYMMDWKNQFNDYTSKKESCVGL

How the values were obtained:
[1] = target: human Ephrin type-B Receptor 2 (EphB2), EPHB2 (gene 2048) (UniProt P29323); test: NVS_ENZ_hEphB2: NovaScreen (NVS) Enzymatic Assay for human Ephrin type-B Receptor 2 (EphB2) (AID 2283156)
Summary of the method: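 Recombinant kinase with fluorescent substrate, product separated by electrophoretic mobility shift, read 1 h after dosing. Duplicate 25 uM screen, then singleton concentration-response to 50 uM max; loss of signal versus DMSO.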

[2] = target: human Ephrin type-A Receptor 1 (EphA1), EPHA1 (gene 2041) (UniProt P21709); test: NVS_ENZ_hEphA1: NovaScreen (NVS) Enzymatic Assay for human Ephrin type-A Receptor 1 (EphA1) (AID 2283158);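 further: activity is signal loss versus DMSO meaning EphA1 kinase inhibition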
Summary of the method: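 Chemicals first tested in duplicate at 25 uM against recombinant EphA1 with a fluorescent substrate; those passing threshold went to singleton dose-response topping at 50 uM. Activity read 1 h later as mobility-shift fluorescence, loss of signal relative to DMSO.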

[3] = target: human Fibroblast Growth Factor Receptor 1 (FGFR1), FGFR1 (gene 2260) (UniProt P11362); test: NVS_ENZ_hFGFR1: NovaScreen (NVS) Enzymatic Assay for human Fibroblast Growth Factor Receptor 1 (FGFR1) (AID 2283159)
Summary of the method: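 Cell-free recombinant kinase with fluorescent substrate, product separated by electrophoretic mobility shift; read 1 hour after dosing, loss of signal relative to DMSO. Initial screen in duplicate at 25 uM, actives followed in concentration series.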

[4] = target: Glycogen synthase kinase-3 beta (Homo sapiens) (UniProt P49841); test: NVS_ENZ_hGSK3b: NovaScreen (NVS) Enzymatic Assay for human Glycogen Synthase Kinase-3 beta (GSK3b) (AID 2283165)
Summary of the method: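 Recombinant enzyme with specific fluorescent substrate, 1 h, product separated by electrophoretic mobility shift. Primary duplicate screen at 25 uM; actives (e.g. 30% inhibition) followed in singleton concentration-response to 50 uM. Signal loss fitted versus DMSO.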

[5] = target: human IkappaB Kinase alpha (IKKa), CHUK (gene 1147) (UniProt O15111); test: NVS_ENZ_hIKKa: NovaScreen (NVS) Enzymatic Assay for human IkappaB Kinase alpha (IKKa) (AID 2283167)
Method: NVS_ENZ_hIKKa is a biochemical, single-readout assay that uses extracted gene-proteins in a cell-free assay. Measurements were taken 1 hour after chemical dosing in a 384-well plate.NVS_ENZ_hIKKa is one of one assay component(s) measured or calculated from the NVS_ENZ_hIKKa assay. It is designed to make measurements of enzyme activity, a form of enzyme reporter, as detected with fluorescence intensity signals by Fluorescence and electrophoretic mobility shift technology.Data from the assay component NVS_ENZ_hIKKa was analyzed into 1 assay endpoint. This assay endpoint, NVS_ENZ_hIKKa, was analyzed in the positive analysis fitting direction relative to DMSO as the negative control and baseline of activity. Using a type of enzyme reporter, loss-of-signal activity can be used to understand changes in the enzymatic activity as they relate to the gene CHUK. Furthermore, this assay endpoint can be referred to as a primary readout, because this assay has produced multiple assay endpoints where this one serves a enzymatic activity function. To generalize the intended target to other relatable targets, this assay endpoint is annotated to the kinase intended target family, where the subfamily is serine/threonine kinase. […]

[6] = target: human Matrix Metalloproteinase-7 (MMP7), MMP7 (gene 4316) (UniProt P09237); test: NVS_ENZ_hMMP7: NovaScreen (NVS) Enzymatic Assay for human Matrix Metalloproteinase-7 (MMP7) (AID 2283183)
Summary of the method: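 Cell-free fluorescence enzymatic assay read 1 h after compound addition, activity loss analyzed against DMSO. Primary duplicate testing at 25 uM; compounds meeting threshold rerun in singleton concentration-response up to 50 uM.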

[7] = target: human Ephrin type-A Receptor 2 (EphA2), EPHA2 (gene 1969) (UniProt P29317); test: NVS_ENZ_hEphA2: NovaScreen (NVS) Enzymatic Assay for human Ephrin type-A Receptor 2 (EphA2) (AID 2283155)
Summary of the method: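 Cell-free recombinant EphA2 kinase with specific substrate, 1 h, fluorescence with electrophoretic mobility-shift separation of substrate and product. Primary screen at 25 uM in duplicate; hits retested in singleton concentration-response up to 50 uM, referenced to DMSO.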

[8] = target: human Mitogen-Activated Protein Kinase 1 (MAPK 1), MAPK1 (gene 5594) (UniProt P28482); test: NVS_ENZ_hMAPK1: NovaScreen (NVS) Enzymatic Assay for human Mitogen-Activated Protein Kinase 1 (MAPK 1) (AID 2283175)
Summary of the method: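 Cell-free recombinant human MAPK1 enzymatic assay, fluorescence/electrophoretic mobility shift read at 1 h; loss of signal vs DMSO. Primary screen in duplicate at 25 uM; actives (e.g. ≥30% inhibition) run as concentration-response up to 50 uM.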

[9] = target: human Elastase, ELANE (gene 1991) (UniProt P08246); test: NVS_ENZ_hElastase: NovaScreen (NVS) Enzymatic Assay for human Elastase (AID 2283153)
Summary of the method: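 Cell-free elastase from human neutrophils, 1.5 h after dosing, activity read by absorbance. Primary screen in duplicate at 25 uM; hits (e.g., 30% inhibition) rerun in singleton concentration-response up to 50 uM, fitted versus DMSO.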

[10] = target: human Esterase Plasma (ES), BCHE (gene 590) (UniProt P06276); test: NVS_ENZ_hES: NovaScreen (NVS) Enzymatic Assay for human Esterase Plasma (ES) (AID 2283157)
Method: NVS_ENZ_hES is a biochemical, single-readout assay that uses extracted gene-proteins from Human plasma in a cell-free assay. Measurements were taken 0.25 hour after chemical dosing in a 96-well plate.NVS_ENZ_hES is one of one assay component(s) measured or calculated from the NVS_ENZ_hES assay. It is designed to make measurements of enzyme activity, a form of enzyme reporter, as detected with absorbance signals by Colorimetric technology.Data from the assay component NVS_ENZ_hES was analyzed into 1 assay endpoint. This assay endpoint, NVS_ENZ_hES, was analyzed in the positive analysis fitting direction relative to DMSO as the negative control and baseline of activity. […] Furthermore, this assay endpoint can be referred to as a primary readout, because this assay has produced multiple assay endpoints where this one serves a enzymatic activity function. […]
Binding assays used specific radioligands (tritiated, iodinated) with non-radioactive competitive displacement ligands in agonist or antagonist protocols (as indicated) and various reference compounds and inhibitors to titrate specific binding to receptors and transporters. Most enzyme assays (CYPs, kinases, phosphatases, proteases, HDACs) used recombinant protein and specific substrates (fluorescence mostly, some colorimetric and radioactive) and inhibitors, followed by a biochemical separation of substrate and product. […]

## Cc1cc([N+](=O)[O-])cc([N+](=O)[O-])c1O
[1]
  outcome: inactive
[2]
  outcome: inactive
[3]
  outcome: inactive
[4]
  outcome: inactive
[5]
  outcome: inactive
[6]
  outcome: inactive

## CC(C)OP(=S)(OC(C)C)SCCNS(=O)(=O)c1ccccc1
[7]
  outcome: inactive
[2]
  outcome: inactive
[3]
  outcome: inactive
[8]
  outcome: inactive

## CN(C(=O)Cc1cccc2occc12)[C@H]1CC[C@@]2(CCCO2)C[C@@H]1N1CCCC1
[9]
  outcome: inactive
[10]
  AC50: active: 21.9 µM
